Here are results for one compound from patent US20260144805A1, “CANNABIDIOL COMPOSITIONS FOR USE IN THE TREATMENT OF NEURODEGENERATIVE AND NEUROLOGICAL DISORDERS” (JAZZ PHARMACEUTICALS RESEARCH UK LIMITED, priority 2022, published 2026).

Series [1] can be described thus: Weekly body weight of rTg4510 mice (Example 2). Conditions: acute and chronic efficacy phases, weeks 30-32; Risperidone or DS. Format: in vivo, mouse. How it is done: Weekly bodyweight: all animals were weighed weekly until the end of the study.
Weekly body weight data were analysed by mixed linear model with the cohort by week and group by week interactions as fixed effects, animal as the random subject, using an AR (1)+RE correlation structure. Comparisons to the WW and rTg4510 (vehicle) groups for the same week were by the multiple t test.

The nature of series [2]: Brain weight of rTg4510 mice (Example 2). Format: in vivo, mouse. Conditions: rTg4510 CC mice receiving risperidone or DS. How it is done:
Brain Tissue Collection: Mice were decapitated and the brains rapidly extracted. Brains were briefly washed in saline and blot dried then hemisected, weighed separately and frozen on dry ice before storage at approximately −80° C.
Brain weights were analysed by 2-way analysis of variance with treatment and cohort as factors.

Consider `Cc1nc2n(c(=O)c1CCN1CCC(c3noc4cc(F)ccc34)CC1)CCCC2` [Risperidone], for which the changes in bodyweight entry in series [1] was “no significant changes”. Besides, in series [2], the “brain weight vs rTg4510 CC mice which received vehicle” value is given as “no significant differences”.
